Data on two molecules can be found in patent US20120010242A1 (ALKERSTRAAT 30 A, priority 2009, published 2012).

The chains behind the UniProt entries cited, without tags or fusion partners. Where a name states a change or a piece, a line headed by the entry shows the natural chain unless it says otherwise.
UniProt P14416, whole entry: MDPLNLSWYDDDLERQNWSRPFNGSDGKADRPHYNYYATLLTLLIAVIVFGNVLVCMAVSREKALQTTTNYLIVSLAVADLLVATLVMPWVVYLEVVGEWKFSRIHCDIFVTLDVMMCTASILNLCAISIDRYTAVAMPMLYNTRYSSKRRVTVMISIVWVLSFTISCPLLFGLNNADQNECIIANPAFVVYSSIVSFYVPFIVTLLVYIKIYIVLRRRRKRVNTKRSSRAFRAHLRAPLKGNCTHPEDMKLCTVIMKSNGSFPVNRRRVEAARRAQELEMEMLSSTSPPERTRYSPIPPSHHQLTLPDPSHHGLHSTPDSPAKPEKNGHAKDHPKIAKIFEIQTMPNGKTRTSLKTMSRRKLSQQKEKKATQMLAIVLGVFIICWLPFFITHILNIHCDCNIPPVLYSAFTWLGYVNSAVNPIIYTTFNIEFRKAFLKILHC
UniProt P28566: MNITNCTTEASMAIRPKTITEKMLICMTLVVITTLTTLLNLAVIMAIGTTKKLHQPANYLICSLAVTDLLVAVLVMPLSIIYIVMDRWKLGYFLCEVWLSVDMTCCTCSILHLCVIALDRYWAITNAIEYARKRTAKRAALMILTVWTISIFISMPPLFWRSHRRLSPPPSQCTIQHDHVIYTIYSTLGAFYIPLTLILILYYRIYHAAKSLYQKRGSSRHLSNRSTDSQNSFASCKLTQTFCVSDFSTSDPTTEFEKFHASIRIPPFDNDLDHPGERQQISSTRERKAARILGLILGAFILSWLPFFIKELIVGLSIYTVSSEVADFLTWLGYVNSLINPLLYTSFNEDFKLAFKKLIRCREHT

By Ki is commonly meant the equilibrium dissociation constant of an inhibitor or competing ligand from its target. Read a high Ki as lower affinity.

One assay addresses D2 dopamine receptor (Homo sapiens, UniProt P14416). The assay is described as follows: pKi for dopamine receptor D2 (Table 1). In kind it is binding.
The next assay deals with 5-HT1E receptor (Homo sapiens, UniProt P28566). The assay is described as follows: pKi for 5HT1E receptor (Table 1). In kind it is binding.

For the molecule `CCN1CCC[C@H]1CNC(=O)c1c(O)c(Cl)cc(Cl)c1OC` (racemic) [Raciopride], the “pKi D2” value on D2 dopamine receptor is reported as 8-9.

Take `Cc1nc2n(c(=O)c1CCN1CCC(c3noc4cc(F)ccc34)CC1)CCCC2` [Risperidone]: the Ki on 5-HT1E receptor was > 1000 nM.
